The results in this text go back to US20020013314A1, “3,4-dihydro-2H-benzo[1,4]oxazine inhibitors of factor Xa” (priority 2000, published 2002).

Amino acid sequences for entries named in this document (tags omitted). Residues count along the entry.
UniProt P00742, 41-179 limits assumed: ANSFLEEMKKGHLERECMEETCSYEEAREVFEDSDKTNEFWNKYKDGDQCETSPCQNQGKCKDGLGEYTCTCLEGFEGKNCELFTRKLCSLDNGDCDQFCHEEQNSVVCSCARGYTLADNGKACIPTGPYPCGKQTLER
UniProt P00742, 235-488 limits assumed: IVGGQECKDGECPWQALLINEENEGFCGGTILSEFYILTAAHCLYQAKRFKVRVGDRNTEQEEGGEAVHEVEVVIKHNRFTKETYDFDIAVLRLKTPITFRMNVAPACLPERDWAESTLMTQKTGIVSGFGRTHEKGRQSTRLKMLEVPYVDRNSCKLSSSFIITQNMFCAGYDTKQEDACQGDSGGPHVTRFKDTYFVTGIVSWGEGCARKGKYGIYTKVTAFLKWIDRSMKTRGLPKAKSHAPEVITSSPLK
UniProt P12259, 29-737 partner limits assumed: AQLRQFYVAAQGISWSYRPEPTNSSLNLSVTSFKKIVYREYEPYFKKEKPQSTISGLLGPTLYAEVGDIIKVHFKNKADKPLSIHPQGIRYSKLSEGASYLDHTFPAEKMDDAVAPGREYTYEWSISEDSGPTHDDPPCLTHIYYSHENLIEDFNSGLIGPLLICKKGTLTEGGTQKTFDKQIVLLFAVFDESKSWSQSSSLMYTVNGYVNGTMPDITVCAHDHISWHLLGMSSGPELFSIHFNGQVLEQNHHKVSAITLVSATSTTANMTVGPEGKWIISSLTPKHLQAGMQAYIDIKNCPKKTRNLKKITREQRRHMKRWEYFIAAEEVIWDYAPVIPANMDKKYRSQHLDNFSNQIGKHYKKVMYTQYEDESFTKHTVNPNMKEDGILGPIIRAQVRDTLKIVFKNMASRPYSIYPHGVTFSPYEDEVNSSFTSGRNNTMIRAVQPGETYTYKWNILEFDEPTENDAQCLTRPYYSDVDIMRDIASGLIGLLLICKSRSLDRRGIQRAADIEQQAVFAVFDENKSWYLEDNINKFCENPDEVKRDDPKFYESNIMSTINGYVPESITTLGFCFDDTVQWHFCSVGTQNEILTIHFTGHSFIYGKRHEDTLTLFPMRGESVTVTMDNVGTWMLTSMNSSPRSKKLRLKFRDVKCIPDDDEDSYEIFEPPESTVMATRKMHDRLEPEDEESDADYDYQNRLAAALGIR
UniProt P12259, 1574-2224 partner limits assumed: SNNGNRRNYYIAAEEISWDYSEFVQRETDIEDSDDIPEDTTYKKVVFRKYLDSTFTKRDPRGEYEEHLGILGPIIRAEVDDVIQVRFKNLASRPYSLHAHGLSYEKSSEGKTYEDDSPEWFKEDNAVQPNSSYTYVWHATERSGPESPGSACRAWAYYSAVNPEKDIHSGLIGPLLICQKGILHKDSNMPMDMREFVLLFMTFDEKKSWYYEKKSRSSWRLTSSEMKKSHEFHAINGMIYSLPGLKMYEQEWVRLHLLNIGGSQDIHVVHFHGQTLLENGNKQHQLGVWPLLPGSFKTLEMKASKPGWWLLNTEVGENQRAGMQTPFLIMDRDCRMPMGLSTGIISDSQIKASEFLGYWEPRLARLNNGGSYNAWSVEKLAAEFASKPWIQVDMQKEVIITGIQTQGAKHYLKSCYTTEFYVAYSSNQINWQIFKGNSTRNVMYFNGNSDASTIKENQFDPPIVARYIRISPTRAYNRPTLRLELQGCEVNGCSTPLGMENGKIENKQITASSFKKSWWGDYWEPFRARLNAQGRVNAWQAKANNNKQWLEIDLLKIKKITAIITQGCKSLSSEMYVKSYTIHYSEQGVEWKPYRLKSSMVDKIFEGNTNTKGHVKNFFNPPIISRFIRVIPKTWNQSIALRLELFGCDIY

Where two headings read alike, the source gives them in different places.

One assay has as its target factor Xa (Homo sapiens, UniProt P00742). Briefly: factor Xa amidolytic assay (chromogenic substrate S-2765). As to conditions: read-out: IC50 (nM) Factor Xa.
The target in a further assay is thrombin (Homo sapiens, UniProt P00734). The assay can be described thus: thrombin amidolytic assay (Chromozym TH). Particulars: read-out: IC50 (nM) Thrombin; Table 5.
The next assay has as its target prothrombinase complex (Homo sapiens, UniProt P00742). Briefly: prothrombinase inhibition assay (plasma free system, Chromozym TH). Format: biochemical. As to conditions: read-out: IC50 (nM) Prothrombinase; Table 5.

Regarding `CCn1c(CN2C(=O)COc3cc(OC4CCN(C(C)=N)CC4)ccc32)cc2ccc(C(=N)N)cc21`, on factor Xa (Table 4), the IC50 was 2.2 nM.

In the case of `N=C(N)c1cccc(C(=O)Nc2ccc3c(c2)OCC(=O)N3Cc2ccc3ccc(C(=N)N)cc3c2)c1`, the IC50 on factor Xa (Table 5) came to 1760 nM; on thrombin it was 106000 nM; at prothrombinase complex, 56600 nM.
